Amino acid sequences for entries named in this document (tags omitted).
UniProt O14842, whole entry: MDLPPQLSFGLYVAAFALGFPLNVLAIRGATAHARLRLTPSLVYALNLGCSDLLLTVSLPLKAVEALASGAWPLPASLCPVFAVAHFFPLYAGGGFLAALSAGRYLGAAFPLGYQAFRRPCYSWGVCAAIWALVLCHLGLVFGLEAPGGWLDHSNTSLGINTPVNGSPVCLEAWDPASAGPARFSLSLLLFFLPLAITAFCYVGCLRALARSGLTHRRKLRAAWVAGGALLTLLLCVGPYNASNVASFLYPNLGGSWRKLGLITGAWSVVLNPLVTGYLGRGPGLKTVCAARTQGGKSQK

In patent publication US10793530B2, “Benzylaminopyrazinylcyclopropanecarboxylic acids, pharmaceutical compositions and uses thereof” (Boehringer Ingelheim International GmbH, priority 2017, dated 2020):

What follows are molecules tested against human GPR40 receptor (Homo sapiens, UniProt O14842) (assay: IP1 accumulation measurements using the IPOne assay system). Details: 1321N1 cells stably expressing human GPR40 receptor; stimulated 1 h at 37° C.
Format: cell-based
Method: IP1 is assayed according to the manufacturers description (Cisbio Bioassays, France). In brief, the assay is started by substitution of the culture medium by stimulation buffer (Hepes 10 mM, CaCl2 1 mM, MgCl2 0.5 mM, KCl 4.2 mM, NaCl 146 mM, glucose 5.5 mM and LiCl 50 mM, pH 7.4). Cells are stimulated for 1 h at 37° C., 5% CO2 by addition of the compounds that are diluted in stimulation buffer containing LiCl. Assays are stopped by adding HTRF-conjugates (IP1-d2 and Anti-IP1 cryptate Tb) and lysis buffer, provided by the manufacturer. After an incubation time of 1 h at room temperature plates are measured using an EnVision™, Perkin Elmer. The obtained fluorescence ratios at 665/615 […] are then used to calculate the pEC50 values using Assay Explorer 3.3 Software (Accelrys, Inc.) by interpolation using an IP1 reference curve and subsequent sigmoidal curve fitting allowing for a variable hill slope.

Structure (SMILES) | EC50 [nM]
Cc1cnc(-c2cc(C)c(-c3ccc(F)c(CNc4cnc(C5CC5C(=O)O)cn4)c3)c(C)c2)nc1 (single isomer, unassigned) | 389
Cc1cc(-c2ccnn2C)cc(C)c1-c1ccc(F)c(CNc2cnc(C3CC3C(=O)O)cn2)c1 (single isomer, unassigned) | 72
Cc1cc(C#N)cc(C)c1-c1ccc(F)c(CNc2cnc(C3CC3C(=O)O)cn2)c1 (single isomer, unassigned) | 984
Cc1cc(-c2cnccn2)cc(C)c1-c1ccc(F)c(CNc2cnc(C3CC3C(=O)O)cn2)c1 (single isomer, unassigned) | 14
Cc1cc(OC2CCOC2)cc(C)c1-c1ccc(F)c(CNc2cnc(C3CC3C(=O)O)cn2)c1 (stereo not shown) [Example 42] | 25

The next lines start with the values.

EC50 [nM] | Structure (SMILES)
23 | Cc1cc(OCc2ccccc2)cc(C)c1-c1ccc(F)c(CNc2cnc(C3CC3C(=O)O)cn2)c1 (single isomer, unassigned)
278 | Cc1cc(-c2ccn(C)c(=O)n2)cc(C)c1-c1ccc(F)c(CNc2cnc(C3CC3C(=O)O)cn2)c1 (single isomer, unassigned)
